{
  "source": "patent US10457707B2",
  "about": "“Substituted urea depsipeptide analogs as activators of the CLPP endopeptidase” (priority 2015, dated 2019)",
  "assay": "Solubility determination in DPBS (LC-MS/UV)",
  "conditions": "100 uM nominal, the given compound itself",
  "data": [
    {"substance": "sodium (R)-1-((2R,6S,9S,11aS,17S,18S,20aS)-17-((S)-3-(3,5-difluorophenyl)-2-(3-(p-tolyl)ureido)propanamido)-2,6,10,18-tetramethyl-5,8,11,16,20-pentaoxohexadecahydro-1H,5H,16H-dipyrrolo[2,1-c:2′,1′-l][1]oxa[4,7,10,13]tetraazacyclohexadecin-9-yl)ethyl phosphate [Compound 193]", "values": [
      {"measurement": "Solubility, Compound", "result": "114.6 ± 2.4", "unit": "µM"}
    ]}
  ]
}
